PubChem BioAssay AID588855 (National Center for Advancing Translational Sciences (NCATS), 2011)
The list shows a part of the results, in another mix than the full data. Results filed as inconclusive are left out. Calls of active or inactive are those of the source. Calls follow the shape of the dose curve; as a rule, active = well fitted inhibition curve with a large enough effect; inconclusive = small, poorly fitted or top-dose-only effect; inactive = no such curve, though single readings can be large or run the other way.

Assay: qHTS for Inhibitors of TGF-b; also: nearly all actives have a fitted effect of over 65% in size
Conditions: HepG2 CAGA-GFP TGF-b/SMAD3 reporter, GFP fluorescence, 18 h, TGF-beta stimulated, 500 pg/mL final; series mostly up to 46.1 µM; activity, negative = inhibition: at the top concentration
% is scaled to controls: 0 for no effect and ±100 for the full control effect; potency is read from the fitted curve at half-maximal effect.

| SMILES | activity, negative = inhibition | Potency |
| --- | --- | --- |
| CP(=S)(Nn1cnnc1)Oc1ccccc1 (configuration not stated) | inactive: 3.06% | – |
| CP(=O)(Nc1ccccc1Br)Oc1ccccc1 (configuration not stated) | inactive: -4.66% | – |
| COc1ccccc1OP(C)(=O)Nc1ccccc1 (configuration not stated) | inactive: 12% | – |
| CP(=O)(Oc1ccccc1)OC(c1ccccc1)C(F)(F)F (configuration not stated) | inactive: -10.2% | – |
| Cc1cccc(C)c1OP(C)(=O)Nc1ccc(SC(F)(F)F)cc1 (configuration not stated) | inactive: 0.196% | – |
| CP(=O)(NC(=O)Nc1ccccc1)Oc1ccccc1 (configuration not stated) | inactive: -15.3% | – |
| CCOC(=O)c1ccc(NP(C)(=O)Oc2ccc(OC)cc2)cc1 (configuration not stated) | inactive: -0.821% | – |
| O=[N+]([O-])c1cc([N+](=O)[O-])c(O)c([N+](=O)[O-])c1.c1ccc(Oc2ccncc2)cc1 | inactive: -10.6% | – |
| CCOP(C)(=S)SCC(=O)NC(C)C(=O)O (configuration not stated) | inactive: -8.09% | – |
| CP(=O)(Nc1ccccn1)Oc1ccc(Cl)cc1 (configuration not stated) | inactive: -0.195% | – |
| CCN(CC)CCCOC(=O)C(O)(c1ccccc1)c1ccccc1 | inactive: -11.9% | – |
| Cc1cccc(C)c1OP(C)(N)=O (configuration not stated) | inactive: 17.2% | – |
| CC(C)(C)c1ccc(OP(C)(=O)Nc2ccc(SC(F)(F)F)cc2)cc1 (configuration not stated) | inactive: -55.2% | – |
| Cc1ccc(NP(C)(=O)Oc2ccccc2)c(C)c1 (configuration not stated) | inactive: 0.523% | – |
| COc1ccccc1OP(C)(=O)Nc1ccc(C)cc1 (configuration not stated) | inactive: 10.1% | – |
| CCOC(=O)c1ccc(NP(C)(=O)Oc2ccccc2)cc1 (configuration not stated) | inactive: -21% | – |
| Cc1cc(C)cc(OP(C)(N)=O)c1 (configuration not stated) | inactive: 1.08% | – |
| COc1ccc(OP(C)(=O)Nc2cccc(F)c2)cc1 (configuration not stated) | inactive: -0.678% | – |
| CC1=NCCc2c1[nH]c1ccccc21.O=[N+]([O-])c1cc([N+](=O)[O-])c(O)c([N+](=O)[O-])c1 | inactive: -4.08% | – |
| COc1ccccc1OP(C)(=O)Nc1cccc(Br)c1 (configuration not stated) | inactive: -15.2% | – |
| CCOC(=O)c1ccc(NP(C)(=O)Oc2cc(C)cc(C)c2)cc1 (configuration not stated) | inactive: 0% | – |
| Cc1cc(C)cc(OP(C)(=O)Nc2ccc(C)cc2C)c1 (configuration not stated) | inactive: -5.89% | – |
| Cc1ccc(C)c(NP(C)(=O)Oc2ccccc2)c1 (configuration not stated) | inactive: -0.459% | – |
| CP(=O)(Nc1cccc(Br)c1)Oc1ccccc1 (configuration not stated) | inactive: 1.6% | – |

| SMILES | activity, negative = inhibition | Potency |
| --- | --- | --- |
| Cc1cc(C)cc(OP(C)(=O)Nc2ccccn2)c1 (configuration not stated) | inactive: 5.06% | – |
| O=[N+]([O-])c1cc([N+](=O)[O-])c(-n2nnc3ccccc32)c([N+](=O)[O-])c1 | inactive: 2.37% | – |
| CN(Cc1cccnc1)C(=O)COc1ccc(Cl)c(Cl)c1.O=[N+]([O-])c1cc([N+](=O)[O-])c(O)c([N+](=O)[O-])c1 | inactive: 5.05% | – |
| Cc1nc2ccc3ccccc3c2s1.O=[N+]([O-])c1cc([N+](=O)[O-])c(O)c([N+](=O)[O-])c1 | inactive: -4.91% | – |
| CC1=C2N=C(C=C3N=C(C(C)=C4[N-][C@@](C)([C@@H]5N=C1[C@](C)(CCC(=O)NC[C@@H](C)OP(=O)([O-])O[C@H]1[C@@H](O)[C@@H](n6cnc7cc(C)c(C)cc76)O[C@@H]1CO)[C@H]5CC(N)=O)[C@@](C)(CC(N)=O)[C@@H]4CCC(N)=O)[C@@](C)(CC(N)=O)[C@@H]3CCC(N)=O)C(C)(C)[C@@H]2CCC(N)=O.[C-]#N.[Co+3] | inactive: -2.87% | – |
| COc1ccccc1OP(C)(=O)Nc1c(C)cccc1C (configuration not stated) | inactive: 3.27% | – |
| CN1CCCCC1COC(=O)C1(O)c2ccccc2CCc2ccccc21 (configuration not stated) | inactive: -15.5% | – |
| CP(=O)(Nc1ccc(SC(F)(F)F)cc1)Oc1ccccc1 (configuration not stated) | inactive: -22.2% | – |
| CCCOc1ccc(NP(C)(=O)Oc2ccc(Cl)cc2)cc1 (configuration not stated) | inactive: -1.35% | – |
| COc1ccc(OP(C)(=O)Nc2cccc(Br)c2)cc1 (configuration not stated) | inactive: -10.7% | – |
| CN(C)CCOC(=O)C(O)(c1ccccc1)C1CCCCC1 (configuration not stated) | inactive: 20.6% | – |
| COc1ccc(NP(C)(=O)Oc2ccccc2OC)cc1 (configuration not stated) | inactive: 2.53% | – |
| O=[N+]([O-])c1ccc(OP2(=O)COCCO2)cc1 (configuration not stated) | inactive: 15.8% | – |
| Cc1cc(-c2cccc3ccccc23)c(C)cn1.O=[N+]([O-])c1cc([N+](=O)[O-])c(O)c([N+](=O)[O-])c1 | inactive: -25.2% | – |
| Cc1c(C(c2ccc3c(c2)OCO3)c2c(C)n(C)n(-c3ccccc3)c2=O)c(=O)n(-c2ccccc2)n1C.O=[N+]([O-])c1cc([N+](=O)[O-])c(O)c([N+](=O)[O-])c1 | inactive: 7.3% | – |
| CCOP(C)(=S)SCC(=O)NC(C)(CC)C(=O)O (configuration not stated) | inactive: 0.486% | – |
| CP(=O)(Nc1ccc2c(c1)OCCO2)Oc1ccccc1 (configuration not stated) | inactive: -16.2% | – |
| Cc1ccccc1NP(C)(=O)Nc1ccccc1C | inactive: -19.7% | – |
| CP(=O)(Nc1ccccc1F)Oc1ccccc1 (configuration not stated) | inactive: 1.26% | – |
| O=C(OCCN1CCN(CCOCc2ccccc2)CC1)C(O)(c1ccccc1)c1ccccc1 | inactive: 1.68% | – |
| CCOC(=O)c1ccc(NP(C)(=O)Oc2ccc(F)cc2)cc1 (configuration not stated) | inactive: -49.6% | – |
| COc1ccc(OP(C)(=O)Nc2ccc(SC(F)(F)F)cc2)cc1 (configuration not stated) | inactive: 40.4% | – |
| CP(=O)(Nc1ccccc1)Oc1ccc(F)cc1 (configuration not stated) | inactive: -0.441% | – |
| CCCCCOc1ccc(NP(C)(=O)Oc2ccc(Cl)cc2Cl)cc1 (configuration not stated) | – | active: 10 µM |

| SMILES | activity, negative = inhibition | Potency |
| --- | --- | --- |
| COc1ccccc1OP(C)(=O)Nc1ccc(C)c(C)c1 (configuration not stated) | inactive: 28% | – |
| COc1ccc(OP(C)(=O)Nc2ccccc2Br)cc1 (configuration not stated) | inactive: 25.9% | – |
| CP(=O)(OCCOc1ccccc1)OCCOc1ccccc1 | inactive: -10.5% | – |
| CP(=O)(Nc1ccc(Cl)cc1Cl)Oc1ccccc1 (configuration not stated) | inactive: 0.651% | – |
| COc1ccccc1OP(C)(=O)Nc1ccc(Br)cc1 (configuration not stated) | inactive: 6.03% | – |
| COc1ccc(OP(C)(=O)Nc2ccccn2)cc1 (configuration not stated) | inactive: 15% | – |
| CN(C)CCOC(=O)C(O)(c1ccccc1)C1CCCC1 (configuration not stated) | inactive: 0.315% | – |
| O=[N+]([O-])c1cc([N+](=O)[O-])c(Nc2ccccn2)c([N+](=O)[O-])c1 | – | active: 10 µM |
| Cc1c(NP(C)(=O)Oc2ccc(C(C)C)cc2)c(=O)n(-c2ccccc2)n1C (configuration not stated) | inactive: -0.248% | – |
| COc1ccccc1OP(C)(=O)Nc1ccc(C)cc1C (configuration not stated) | inactive: 3.11% | – |
| CP(=O)(Nc1ccccn1)Oc1ccccc1 (configuration not stated) | inactive: 6.2% | – |
| CCc1ccc(OP(C)(=O)O)cc1 | inactive: 5.97% | – |
| COc1ccc(OP(C)(=O)Nc2ccc(Br)cc2)cc1 (configuration not stated) | inactive: -2.03% | – |
| CCN(CC)CC(O)COC(=O)C(O)(c1ccccc1)C1CCCCC1 (configuration not stated) | inactive: -6.13% | – |
| O=C(OCCCN1CCCC1)C(O)(c1ccccc1)C1CCCCC1 (configuration not stated) | inactive: 8.02% | – |
| COc1ccccc1OP(C)(=O)Nc1c(C)n(C)n(-c2ccccc2)c1=O (configuration not stated) | inactive: 2.32% | – |
| CCc1ccc(OP(C)(=O)Nc2cccnc2)cc1 (configuration not stated) | inactive: 18.4% | – |
| CP(=O)(Oc1ccccc1)N1CCOC1=O (configuration not stated) | inactive: 25.8% | – |
| CC(C)(C)c1ccc(OP(C)(=O)O)cc1 | inactive: 16.5% | – |
| COc1ccccc1OP(C)(=O)Nc1ccccc1Br (configuration not stated) | inactive: 11% | – |
| CP(=O)(Nc1ccc(Cl)cc1)Oc1ccc(F)cc1 (configuration not stated) | inactive: -25.3% | – |
| CN(C)C(=O)c1c([N+](=O)[O-])cc([N+](=O)[O-])cc1[N+](=O)[O-] | – | active: 11.2 µM |
| Nc1ccc2c(ccc3cccnc32)n1.O=[N+]([O-])c1cc([N+](=O)[O-])c(O)c([N+](=O)[O-])c1 | inactive: 0% | – |
| CP(=O)(OC12CC3CC(CC(C3)C1)C2)OC12CC3CC(CC(C3)C1)C2 | inactive: 19.8% | – |
